Data published in US7834164B2 (priority 2006, dated 2010).

Sequences of proteins named here, by UniProt entry; tags and fusion partners are left off.
UniProt Q09470, whole entry: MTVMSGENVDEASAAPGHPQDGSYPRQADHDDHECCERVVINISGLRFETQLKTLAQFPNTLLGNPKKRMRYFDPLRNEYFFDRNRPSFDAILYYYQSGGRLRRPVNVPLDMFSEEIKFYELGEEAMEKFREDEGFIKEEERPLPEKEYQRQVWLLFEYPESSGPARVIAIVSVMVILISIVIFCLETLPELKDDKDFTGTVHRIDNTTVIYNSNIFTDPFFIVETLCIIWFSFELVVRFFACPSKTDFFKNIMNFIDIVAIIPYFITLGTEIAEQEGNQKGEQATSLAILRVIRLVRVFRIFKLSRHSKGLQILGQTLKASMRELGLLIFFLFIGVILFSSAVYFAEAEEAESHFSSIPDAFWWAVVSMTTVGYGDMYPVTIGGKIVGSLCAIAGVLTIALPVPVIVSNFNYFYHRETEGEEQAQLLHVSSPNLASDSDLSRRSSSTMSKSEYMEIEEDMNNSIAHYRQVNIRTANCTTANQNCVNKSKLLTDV
UniProt P22001, whole entry: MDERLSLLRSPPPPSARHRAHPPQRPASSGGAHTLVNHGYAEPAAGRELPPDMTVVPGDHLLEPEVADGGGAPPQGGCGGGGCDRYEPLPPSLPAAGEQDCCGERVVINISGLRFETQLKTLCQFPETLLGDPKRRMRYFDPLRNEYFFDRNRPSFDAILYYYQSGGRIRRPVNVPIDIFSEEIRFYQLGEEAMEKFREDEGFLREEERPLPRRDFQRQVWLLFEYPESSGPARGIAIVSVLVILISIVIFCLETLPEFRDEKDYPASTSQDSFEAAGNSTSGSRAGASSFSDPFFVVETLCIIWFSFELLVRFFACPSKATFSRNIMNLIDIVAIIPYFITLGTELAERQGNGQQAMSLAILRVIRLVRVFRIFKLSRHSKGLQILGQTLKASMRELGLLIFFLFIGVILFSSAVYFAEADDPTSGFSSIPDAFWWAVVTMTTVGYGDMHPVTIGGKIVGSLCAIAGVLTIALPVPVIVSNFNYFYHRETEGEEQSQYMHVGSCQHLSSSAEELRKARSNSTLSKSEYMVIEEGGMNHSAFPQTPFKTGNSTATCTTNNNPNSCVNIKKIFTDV

Key:
human Kv1.1 = biological target: T1, human Kv1.1 (Homo sapiens, UniProt Q09470); assay type: cell-based
T1 construct: expressed in transfected cells; host or cells: HEK293

human Kv1.3 = human Kv1.3 (Homo sapiens, UniProt P22001); assay type: cell-based; parameters: host or cells: HEK293

SMILES: CC[C@H](C)[C@@H]1NC(=O)[C@H](CCCCN)NC(=O)[C@@H](NC(=O)[C@H](CCCCN)NC(=O)[C@@H](NC(=O)[C@H](CC(N)=O)NC(=O)[C@@H](NC(=O)[C@@H](NC(=O)[C@@H](NC(=O)CN)C(C)C)[C@@H](C)CC)[C@@H](C)CC)C(C)C)CSSC[C@@H]2NC(=O)[C@H](CCCCN)NC(=O)CNC(=O)[C@H](Cc3ccccc3)NC(=O)[C@H](CCCNC(=N)N)NC(=O)[C@H](CCSC)NC(=O)CNC(=O)[C@H](C)NC(=O)[C@H](CCCCN)NC(=O)[C@H](CCCCN)NC(=O)[C@@H]3CSSC[C@@H](C(=O)N[C@H](C(=O)N4CCC[C@H]4C(=O)N[C@@H](CCCCN)C(=O)O)[C@@H](C)O)NC(=O)[C@H](Cc4c[nH]cn4)NC(=O)[C@H](CSSC[C@H](NC(=O)[C@H](CCC(N)=O)NC(=O)[C@H](CCCNC(=N)N)NC(=O)[C@H](CO)NC1=O)C(=O)N[C@@H](CC(C)C)C(=O)N[C@@H](CCC(=O)O)C(=O)N1CCC[C@H]1C(=O)N3)NC(=O)[C@H](CCCCN)NC(=O)CNC(=O)[C@H](CC(N)=O)NC(=O)[C@H](CCSC)NC2=O [OSK1, reference compound]
- Kv1.1 IC50 fold higher than Kv1.3 IC50 (Kv1.3 selectivity) (human Kv1.1): 5 fold
- hKv1.1/hKv1.3 (human Kv1.3): 4
